These results are taken from paper PMC9301657 (Journal of biochemical and molecular toxicology, 2010).

Amino acid sequences for entries named in this document (tags omitted). Residues count along the entry.
UniProt Q9BMJ1, 98-659: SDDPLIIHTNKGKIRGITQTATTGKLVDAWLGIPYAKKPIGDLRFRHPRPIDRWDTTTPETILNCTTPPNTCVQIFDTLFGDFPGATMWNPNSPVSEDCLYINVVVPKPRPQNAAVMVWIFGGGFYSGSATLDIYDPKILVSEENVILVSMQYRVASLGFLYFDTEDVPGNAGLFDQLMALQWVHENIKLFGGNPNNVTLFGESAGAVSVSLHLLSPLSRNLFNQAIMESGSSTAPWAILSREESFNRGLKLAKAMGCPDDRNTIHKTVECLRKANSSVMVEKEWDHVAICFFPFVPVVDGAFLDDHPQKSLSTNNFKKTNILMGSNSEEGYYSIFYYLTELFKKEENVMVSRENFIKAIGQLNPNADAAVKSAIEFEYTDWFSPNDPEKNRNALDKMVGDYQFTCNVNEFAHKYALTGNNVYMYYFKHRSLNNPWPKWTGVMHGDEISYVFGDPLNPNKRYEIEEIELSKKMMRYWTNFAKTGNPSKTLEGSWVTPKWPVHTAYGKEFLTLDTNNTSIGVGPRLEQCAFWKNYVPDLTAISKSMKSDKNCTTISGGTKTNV

The target of experiment [1] is T1, r-SgAChE1 (Schizaphis graminum acetylcholinesterase-1) (Schizaphis graminum, UniProt Q9BMJ1). As to the kind of experiment: Inhibitory kinetic constants. The format is biochemical. As to conditions: ATC substrate, room temperature.
Experiment [2] concerns the target T1, r-SgAChE1 (Schizaphis graminum acetylcholinesterase-1). As to the kind of experiment: Determination of IC50 for inhibition of purified r-SgAChE1. As to conditions: IC50, 5 min incubation, room temperature. The format is biochemical.

Regarding `CCOP(=O)(OCC)Oc1ccc([N+](=O)[O-])cc1` [Paraoxon], the Kd amounted to 3.12 ± 0.34 µM in experiment [1] (Kd (dissociation constant)) and 3.1 ± 0.3 µM in experiment [1] (Kd (dissociation equilibrium constant)). Also, the IC50 in experiment [2] came out at 0.016 µM.

By Kd is commonly meant a measure of binding affinity in units of concentration. Read a low Kd as tighter binding. The term IC50 denotes the concentration needed to halve the response being measured. A low value points to greater potency.
